What all share (format): functional
The subject of assay [1] is Pseudomonas aeruginosa. Briefly: Antibacterial activity against Pseudomonas aeruginosa ATCC 27853by Etest method in presence of […] NAB739.
For assay [2], the system named is Acinetobacter baumannii. The experiment in a line: Antibacterial activity against Acinetobacter baumannii F264 by Etest method in presence of […] NAB739.
The subject of assay [3] is Acinetobacter baumannii. The experiment in a line: Antibacterial activity against Acinetobacter baumannii ATCC 19606 by Etest method in presence of […] NAB739.

In ChEMBL document CHEMBL1671867, “Novel polymyxin derivatives carrying only three positive charges are effective antibacterial agents” (Antimicrob Agents Chemother, 2008) one finds MIC data, which are given here for one compound.

Usually MIC stands for the lowest concentration found to suppress growth.

As for `CO[C@H]1/C=C/O[C@@]2(C)Oc3c(C)c(O)c4c(O)c(c(/C=N/N5CCN(C)CC5)c(O)c4c3C2=O)NC(=O)/C(C)=C\C=C\[C@H](C)[C@H](O)[C@@H](C)[C@@H](O)[C@@H](C)[C@H](OC(C)=O)[C@@H]1C` [RIFAMPIN], the MIC in assay [1] amounted to 32 µg/mL; in assay [2], 0.5 µg/mL; in assay [3], 0.25 µg/mL.
